Reference: PubChem BioAssay AID2391 (Southern Research Specialized Biocontainment Screening …, 2010)
Some of the results follow. Measured potencies and affinities stand elsewhere. Some results for these compounds are left out of this collection, so the calls shown say nothing about other tests. The source made the active and inactive calls. The rule behind the calls is not given here.

Assay: RSV antiviral activity via CPE protection, HEp-2 cells, primary 10 µM value included (AID 2391)
Conditions: RSV-induced CPE inhibition, at 10 µM, hits give high values

| SMILES | CPE inhibition |
| --- | --- |
| CC(C)N1C(=O)CC2(CCN(CCOC(=O)C(O)(c3ccccc3)c3ccccc3)CC2)C1=O | inactive: 0.12% |
| COc1cc(SC)ccc1C(=O)NCC1(N(C)C)CCCCC1 | inactive: 0.51% |
| CCN(CC)CC(C)C(C)OC(=O)C(O)(c1ccccc1)c1ccccc1 (centres undefined) | inactive: -0.36% |
| Cc1ccc(C(=O)NCC2(N3CCCCC3)CCCCC2)cc1 | inactive: 0.27% |
| O=C(NCC1(N2CCCCC2)CCCCC1)c1cc([N+](=O)[O-])ccc1Cl | inactive: -1.33% |
| CN1[C@@H]2CC[C@H]1CC(OC(=O)C(O)(c1ccccc1)c1ccccc1)C2 (some centres undefined) | inactive: -0.33% |
| O=C(NCC1(N2CCCCC2)CCCCC1)c1cc(F)c(F)cc1Cl | inactive: 1.08% |
| C=CCN1CCN(CCOC(=O)C(O)(c2ccccc2)c2ccccc2)CC1 | inactive: -0.36% |
| O=C(NCC1(N2CCCCC2)CCCCC1)c1cccc(Br)c1 | inactive: -0.02% |
| CCN1CCCC(OC(=O)C2(O)c3ccccc3C=Cc3ccccc32)C1 (centres undefined) | inactive: 0.47% |
| Cc1cc(C(=O)NCC2(N3CCCCC3)CCCCC2)ccc1[N+](=O)[O-] | inactive: 0.02% |
| COc1ccc(C(=O)NCC2(N(C)C)CCCCC2)cc1 | inactive: 4.23% |
| CN(C)c1ccc(C(=O)NCC2(N(C)C)CCCCC2)cc1 | inactive: -3.11% |
| CN(C)C1CCCC1OC(=O)C(O)(c1ccccc1)c1ccccc1 (centres undefined) | inactive: 1.44% |
| Cc1ccccc1C(=O)NCC1(N2CCCCC2)CCCCC1 | inactive: -0.16% |
| COc1ccc(Cl)cc1C(=O)NCC1(N(C)C)CCCCC1 | inactive: 2.9% |
| COc1cccc(C(=O)NCC2(N3CCCCC3)CCCCC2)c1 | inactive: 1.25% |
| O=C(NCC1(N2CCCCC2)CCCCC1)c1cccc(Cl)c1 | inactive: 1.05% |
| CN(C)C1(CNC(=O)c2ccc(Br)cc2)CCCCC1 | inactive: -0.42% |
| COc1cc(C(=O)NCC2(N(C)C)CCCCC2)c([N+](=O)[O-])cc1OC | inactive: -0.3% |
| COc1ccc(Br)c(C(=O)NCC2(N3CCCCC3)CCCCC2)c1 | inactive: -1.56% |
| CN(C)c1cccc(C(=O)NCC2(N(C)C)CCCCC2)c1 | inactive: 0.96% |
| CC(C)Oc1ccc(C(=O)NCC2(N(C)C)CCCCC2)cc1 | inactive: 0% |
| O=C(OC1CN2CCC1CC2)C(CO)(c1ccccc1)c1ccccc1 (centres undefined) | inactive: -0.71% |
